Key:
[1] = test system: K+-evoked, Ca2+-dependent release of preloaded [3H]glutamate in slices of SNR; experiment: In vitro EAA release studies in slices of substantia nigra reticulata; type: cell-based; conditions: 1 μM, rat SNR slices
[2] = test system: rat paw pressure test for analgesia; experiment: rat paw pressure test for analgesia; conditions: iv
[3] = biological target: kappa opioid (Cavia porcellus, UniProt P41144); experiment: kappa opioid receptor affinity and selectivity; conditions: read-out: Ki (kappa opioid affinity)
[4] = test system: kappa opioid; experiment: kappa opioid receptor affinity and selectivity; conditions: selectivity
[5] = test system: MPTP-treated Parkinsonian marmoset; experiment: Intracerebral injections into the medial globus pallidus (GPM) in the MPTP-treated primate
[6] = test system: reserpine-treated Parkinsonian rat; experiment: Intracerebral injections into the entopeduncular nucleus in reserpine-treated Parkinsonian rats; conditions: unilateral injection into entopeduncular nucleus

Amino acid sequences for entries named in this document (tags omitted). A change or cut given only in a name is not applied to a line headed by its entry.
UniProt P41144: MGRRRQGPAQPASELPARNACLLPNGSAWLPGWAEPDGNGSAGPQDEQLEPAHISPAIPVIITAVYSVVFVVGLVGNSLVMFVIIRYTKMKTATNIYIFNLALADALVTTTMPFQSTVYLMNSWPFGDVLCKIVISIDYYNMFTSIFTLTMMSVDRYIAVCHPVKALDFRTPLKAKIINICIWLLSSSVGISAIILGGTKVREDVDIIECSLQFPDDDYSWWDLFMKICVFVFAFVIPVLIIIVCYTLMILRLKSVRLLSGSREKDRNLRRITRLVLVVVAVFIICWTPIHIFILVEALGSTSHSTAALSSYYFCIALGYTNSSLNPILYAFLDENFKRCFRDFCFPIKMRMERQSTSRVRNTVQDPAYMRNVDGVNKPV

CN(C(=O)Cc1cccc2occc12)[C@H]1CC[C@@]2(CCCO2)C[C@@H]1N1CCCC1
attenuation of K+-evoked, Ca2+-dependent release of preloaded [3H]glutamate ([1]; 40 mM K+): over 98% | release of [3H]glutamate induced by 40 mM K+ (in words) ([1]; N=6): completely inhibited | MPE50 in the rat paw pressure test for analgesia [2]: 0.030 | Ki [3]: 730 pM | μ/kappa ratio [4]: 798 | reversal of Parkinsonian rigidity and akinesia ([5]; bilateral injections into GPM, 20 mM and 50 mM): marked reversal of Parkinsonian rigidity and akinesia | latency of onset of anti-Parkinsonian effects ([5]; higher dose (50 mM), GPM): less than 4 minutes | stereotyped movements ([5]; higher dose (50 mM), GPM): some stereotyped movements were seen | locomotor activity / mobility score ([5]; injections into GPM): returned to near normal levels | latency of onset of anti-Parkinsonian effects ([5]; lower dose (20 mM), GPM): approximately 25 minutes | stereotypy ([5]; lower dose (20 mM), GPM): no stereotypy was seen | rigidity ([6]; reserpine 4 mg/kg rats): reductions in rigidity | locomotor score (distance moved) ([6]; reserpine 4 mg/kg rats, increasing doses): increasing amounts of locomotor activity | alleviation of Parkinsonian symptoms ([6]; reserpine-treated rat): marked dose-dependent alleviation of Parkinsonian symptoms
